This note sets out measurements from ChEMBL document CHEMBL4819091, “Identification of novel gankyrin binding scaffolds by high throughput virtual screening” (Bioorg Med Chem Lett, 2021).

The target of this assay is T1, 26S proteasome non-ATPase regulatory subunit 10 (Homo sapiens) (UniProt O75832).
T1 sequence (whole entry): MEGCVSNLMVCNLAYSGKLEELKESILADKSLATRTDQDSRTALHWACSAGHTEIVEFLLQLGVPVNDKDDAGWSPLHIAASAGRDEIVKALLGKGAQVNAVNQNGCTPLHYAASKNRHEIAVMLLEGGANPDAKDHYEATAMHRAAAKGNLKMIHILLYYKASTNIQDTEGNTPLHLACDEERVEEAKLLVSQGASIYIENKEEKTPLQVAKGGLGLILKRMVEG
The experiment in a line: Potency index, ratio of deltaTm of compound to deltaTm of Cjoc42 for binding affinity to recombinant human His-tagged gankyrin expressed in Escherichia coli at 300 uM by SYPRO orange dye based thermal shift assay.

For the compound `O=C(O)CN(Cc1ccc(Cl)cc1)C(=O)c1cnc(N2CCC[C@H]2COc2ccc(Cl)cc2)nc1CCc1ccccc1`, the Ratio was determined as 16. For `O=C(O)COc1ccc(CC(=O)O)cc1-c1cc(-c2ccc(Cl)cc2)n(CCc2ccccc2)n1`, the Ratio is 4.
